Screens: PubChem BioAssay, Broad Institute
Compounds with a hit are over-represented: about 1.8% of the library has one in this group of screens.
DENV2 CPE rescue: inhibitors of DENV2 cytopathic effect, primary screen, cell-based, plate reader, single concentration; DENV2-infected cells, cytopathic effect rescue; CPE inhibition, % at 9.99 µM; hit rate 1.7% among 350,000; AID 651640, 2012; in the data active = CPE inhibition above about 20%, passing the limit was not always enough; inconclusive = no clear call, values can overlap the other calls; tested in BHK-21 cells;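 also: 0% = median of neutral control wells and 100% = median of positive control wells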
E-selectin induc: E-selectin induction in HUVECs, primary screen, imaging, HUVEC, immunofluorescence imaging, single point; activation, % at 7.58 µM; normalized: neutral wells 0, TNF-alpha wells 100; P16581; hit rate 0.37% among 260,000;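 active = mean E-selectin-positive cell signal at least 10% of the positive control, reached in at least 60% of replicates, without over 20% cell loss; inconclusive = no rule given, readout overlaps actives, possibly toxicity-flagged; inactive = the rest, including those meeting only one limit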
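assay system = HUVEC, human umbilical vein endothelial cells | input = 3,000 HUVEC seeded per well | medium = EGM-2 growth medium on 0.1% gelatin-coated wells | dosing = one compound dose added by pin transfer | signal = immunofluorescence imaging | read-out basis = % PE-positive cells | control set = TNF-alpha, DMSO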
UUG fidelity: modulators of yeast start codon fidelity, primary screen, whole organism, S. cerevisiae, single point, plate reader. S. cerevisiae UUG-firefly luciferase reporter, luminescence/redox ratio. activity score, % at 18.7 µM. 350,000 tested, 0.13% active;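 active = replicate mean at a twofold rise or more, about +100% in these data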;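 also: firefly luciferase made from a UUG start codon reports start codon fidelity; reporter light over untreated wells divided by growth signal over untreated wells; some hits fall short of that in this replicate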
Cneo AK release: Cryptococcus neoformans cell lysis inducers, primary screen, AK release luminescence, single concentration. C. neoformans lysis, adenylate kinase release luminescence, 4 h; normalised: neutral wells 0, clomiphene wells 100. lysis activity, % at 15 µM. hit rate 0.2% among 360,000;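 active = mean lysis activity across replicates of at least 80%, whatever share of replicates individually reach that level; inactive = mean lysis activity below 80%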
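Test system: log-phase Cryptococcus neoformans yeast cells; Quantity: yeast cell density of 5 × 10^6 cells/mL; Buffer or medium: YPD; Doses: single compound concentration per well; Timing: 4 h at 37 °C static, read 1 h later; Measured by: AK luminescence; Read-out basis: lysis from increased AK signal; Control set: Clomiphene as positive control.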
* = called active by the depositor; ? = inconclusive; . = no result.

SMILES,DENV2 CPE rescue,E-selectin induc,UUG fidelity,Cneo AK release
CC(CCc1ccc(O)cc1)NC(c1ccccc1)c1ccc(Cl)cc1 (centres undefined),55*,.,0,-9
COc1ccc(C#Cc2ccc([C@H]3[C@@H](CO)N4CCCCN(C(=O)Nc5ccc(F)cc5)C[C@@H]34)cc2)cc1,30*,0,3,-2
COc1ccc(NC(=O)N2CCCCN3[C@H](C2)[C@H](c2ccc(-c4ccccc4F)cc2)[C@@H]3CO)cc1,30*,0,4,-1
COc1ccc(NC(=O)N2CCCCN3[C@H](C2)[C@@H](c2ccc(-c4ccccc4F)cc2)[C@@H]3CO)cc1,-25,1,3,4
C[C@H]1CN([C@@H](C)CO)C(=O)Cc2cc(NC(=O)CCCCCC(=O)Nc3ccccc3N)ccc2O[C@@H]1CN(C)C(=O)Nc1cccc2ccccc12,3,-2,.,.
C[C@@H]1CN([C@H](C)CO)C(=O)c2cc(NS(=O)(=O)c3ccc(F)cc3)ccc2O[C@H]1CN(C)S(=O)(=O)c1ccccc1,-2,0,21,1
COc1ccc(NC(=O)N(C)C[C@@H]2OCCCC[C@@H](C)Oc3ccc(NC(=O)c4ccccc4)cc3C(=O)N([C@@H](C)CO)C[C@@H]2C)cc1,-12,0,.,.
C[C@@H]1CN([C@H](C)CO)C(=O)c2cc(N(C)C)ccc2O[C@@H](C)CCCCO[C@@H]1CN(C)C(=O)CCC(F)(F)F,106*,0,9,3
C[C@@H]1CCCCO[C@@H](CN(C)C(=O)Nc2ccc(C(F)(F)F)cc2)[C@@H](C)CN([C@H](C)CO)C(=O)c2cc(NC(=O)c3ccncc3)ccc2O1,28*,1,.,.
COc1ccc(NC(=O)N(C)C[C@H]2OCCCC[C@@H](C)Oc3ccc(NC(=O)c4ccccc4)cc3C(=O)N([C@@H](C)CO)C[C@H]2C)cc1,-1,0,14,102*
COc1ccc(NC(=O)N(C)C[C@H]2OCCCC[C@@H](C)Oc3ccc(NC(=O)c4ccccc4)cc3C(=O)N([C@H](C)CO)C[C@H]2C)cc1,-9,1,36,83*
C[C@@H]1CCCCO[C@H](CN(C)C(=O)Nc2ccc(C(F)(F)F)cc2)[C@@H](C)CN([C@@H](C)CO)C(=O)c2cc(NC(=O)c3ccncc3)ccc2O1,2,0,-2,-13
O=C(C[C@@H]1C=C[C@@H](NS(=O)(=O)c2ccc(F)cc2)[C@H](CO)O1)NCCc1ccncc1,-5,0,-24,1
COc1ccc(NC(=O)N(C)C[C@@H]2OCCCC[C@@H](C)Oc3ccc(NC(=O)c4ccncc4)cc3C(=O)N([C@@H](C)CO)C[C@H]2C)cc1,41*,0,8,5
C[C@@H]1CCCCO[C@@H](CN(C)C(=O)CCC(F)(F)F)[C@H](C)CN([C@H](C)CO)C(=O)c2cc(NC(=O)c3ccncc3)ccc2O1,21*,0,.,.
COc1ccc(NC(=O)N(C)C[C@H]2OCCCC[C@@H](C)Oc3ccc(NC(=O)c4ccncc4)cc3C(=O)N([C@H](C)CO)C[C@H]2C)cc1,14,0,7,4
COCCN(C(=S)Nc1cccc(C)c1)C(C)c1cccs1 (centres undefined),30*,-1,.,.
COCCN(C(=S)Nc1cc(C)cc(C)c1)C(C)c1cccs1 (centres undefined),-4,0,.,.
Cc1ccc(C2CC(c3cccs3)=NN2C(=O)c2ccc(Br)o2)cc1 (centres undefined),.,.,-9,200*
COc1cccc(C2=CC(=O)C(C(C)(C)C)N2C(C)(C)C)c1 (centres undefined),41*,0,13,1
CC(C)(C)Cc1c(-c2ccc(Br)cc2)nc2ccc(Br)cn12,101*,0,8,4
CC(O)(c1ccc(F)c(F)c1)c1nc(/C=C/c2ccc(C(F)(F)F)cc2)cs1 (centres undefined),?,0,-8,0
CC(O)(c1cccc(F)c1)c1nc(/C=C/c2ccccc2)cs1 (centres undefined),22*,-1,-1,-3
CCN1C(=NCc2ccccc2)N[C@@H](c2ccccc2)[C@H](C(=O)OC)[C@H]1C,-14,.,-5,3
CCN1C(=NCCc2c[nH]c3ccccc23)N[C@@H](c2ccccc2)[C@H](C(=O)OC)[C@H]1C,27*,0,-17,3

An excerpt from above, showing only E-selectin induc, DENV2 CPE rescue and UUG fidelity:
SMILES	E-selectin induc	DENV2 CPE rescue	UUG fidelity
C[C@H]1CN([C@@H](C)CO)C(=O)Cc2cc(NC(=O)CCCCCC(=O)Nc3ccccc3N)ccc2O[C@@H]1CN(C)C(=O)Nc1cccc2ccccc12	-2	3	.
C[C@@H]1CN([C@H](C)CO)C(=O)c2cc(NS(=O)(=O)c3ccc(F)cc3)ccc2O[C@H]1CN(C)S(=O)(=O)c1ccccc1	0	-2	21
COc1ccc(NC(=O)N(C)C[C@@H]2OCCCC[C@@H](C)Oc3ccc(NC(=O)c4ccccc4)cc3C(=O)N([C@@H](C)CO)C[C@@H]2C)cc1	0	-12	.
